Experiment [1] concerns the target Thyrotropin receptor (Homo sapiens) (UniProt P16473). In words: qHTS assay to identify small molecule agonists of the thyroid stimulating hormone receptor (TSHR) signaling pathway (AID 1224843). Also: nearly all actives have a fitted effect of over 45% in size. To be noted: TSHR-HEK293 cells, cAMP HTRF, agonist mode, 30 min. (Quantitative high-throughput screening tests each substance at several concentrations.)
Experiment [2] is described as follows: qHTS assay to identify small molecule agonists of H2AX (AID 1224845; active = well fitted activation curve with a large enough effect in the signal ratio in the repeat runs, not every such curve was filed as active; the % refers to the signal ratio; also: potency is read from the fitted curve at half-maximal effect). To be noted: CHO-K1 phospho-H2AX Ser139 HTRF, 3 h; series mostly up to 154 µM. The procedure, abridged:
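Wild-type CHO-K1 cells plated overnight, then exposed 3 hr at 37C to compounds at 15 concentrations (0.76% DMSO). Lysed, then HTRF anti-pH2AX(S139)-cryptate/anti-H2AX-d2 detection after 24 hr at room temperature; emissions 665 and 620 nm.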

Amino acid sequences for entries named in this document (tags omitted).
UniProt P16473, whole entry: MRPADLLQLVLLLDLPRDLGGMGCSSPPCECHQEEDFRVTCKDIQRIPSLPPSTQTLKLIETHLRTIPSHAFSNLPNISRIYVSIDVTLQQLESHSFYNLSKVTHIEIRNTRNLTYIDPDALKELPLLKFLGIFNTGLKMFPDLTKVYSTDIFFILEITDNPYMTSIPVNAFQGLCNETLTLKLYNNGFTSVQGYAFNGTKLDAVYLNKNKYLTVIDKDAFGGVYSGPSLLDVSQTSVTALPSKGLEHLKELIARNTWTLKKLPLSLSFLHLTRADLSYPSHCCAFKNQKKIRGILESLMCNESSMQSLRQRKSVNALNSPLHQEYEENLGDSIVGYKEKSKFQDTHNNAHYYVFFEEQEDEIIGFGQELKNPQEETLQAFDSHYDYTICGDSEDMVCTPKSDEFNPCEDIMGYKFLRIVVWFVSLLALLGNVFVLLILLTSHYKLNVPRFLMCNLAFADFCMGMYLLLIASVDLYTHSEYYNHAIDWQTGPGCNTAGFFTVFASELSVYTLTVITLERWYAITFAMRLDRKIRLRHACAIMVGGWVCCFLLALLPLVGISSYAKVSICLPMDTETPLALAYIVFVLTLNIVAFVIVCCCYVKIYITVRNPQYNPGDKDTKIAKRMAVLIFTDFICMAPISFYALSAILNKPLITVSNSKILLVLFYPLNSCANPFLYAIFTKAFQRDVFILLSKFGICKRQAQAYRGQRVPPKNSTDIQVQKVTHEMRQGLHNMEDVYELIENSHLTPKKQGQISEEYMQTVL

A short description of experiment [3]: qHTS assay to identify small molecule agonists of H2AX - cell viability counter screen (AID 1224847). Also: top concentration of the series differs between compounds; nearly all actives have a fitted effect of over 30% in size. To be noted: CHO-K1 viability, CellTiter-Glo luminescence, 3 h; at 154 µM (top of the series). The gist of the method: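 Read-out: CellTiter-Glo luminescence, 30 min RT. Cells: wild-type CHO-K1, 1000/well, 10% FBS, plated overnight at 37C. Treatment: 15 concentrations, 3 hr, 37C, 0.76% DMSO.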

Experiment [4] in a line: qHTS assay to identify small molecule agonists of the estrogen related receptor (ERR) signaling pathway from Tox21 library (AID 1224849). Also: nearly all actives have a fitted effect of over 15% in size. To be noted: ERR reporter cell line, ONE-Glo luciferase, 18 h. The gist of the method: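 Luciferase activity in ERR pathway reporter cells served as the agonist readout; exposure lasted 18 h at 37 C, with ONE-Glo detection after 30 min at room temperature.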

Experiment [5] in a line: qHTS assay to identify small molecule agonists of the estrogen related receptor signaling pathway with the pleiotropic PPARgamma coactivator (PGC) from Tox21 10K library (AID 1224842; active = well fitted curve in the direction sought with a large enough effect in the repeat runs; an effect the other way counts as inactive or inconclusive; also: nearly all actives have a fitted effect of over 15% in size). To be noted: PGC/ERR reporter cell line, luciferase ONE-Glo, 18 h; at 92.4 µM (top of the series). The gist of the method:
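PGC/ERR reporter cells (NTP line) were seeded 2,000 per well, rested 6 h at 37 C/5% CO2, then pin-dosed with compounds in DMSO for 18 h at 37 C; luciferase read by One-Glo luminescence after 30 min at room temperature.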

A short description of experiment [6]: qHTS assay to identify small molecule agonists of the hypoxia (HIF-1) signaling pathway - cell viability counter screen (AID 1224844). Also: nearly all actives have a fitted effect of over 50% in size. To be noted: HRE-bla ME-180 viability, CellTiter-Glo luminescence, 17 h; at 76.8 µM (top of the series). The procedure, abridged:
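In this counter screen, HRE-bla ME-180 cell viability after 17 hrs of compound exposure at 37C was read by CellTiter-Glo luminescence, multiplexed with the beta-lactamase reporter measurement.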

Experiment [7] in a line: qHTS assay to identify small molecule agonists of the hypoxia (HIF-1) signaling pathway (AID 1224846; active = well fitted activation curve with a large enough effect in the signal ratio in the repeat runs, not every such curve was filed as active; the % refers to the signal ratio). To be noted: HRE-bla ME-180 cells, beta-lactamase ratio, 17 h; at 76.8 µM (top of the series). An excerpt:
U.S. Tox21 Program National Center for Advancing Translational Sciences [NCATS] NIH Chemical Genomics Center [NCGC] U.S. Environmental Protection Agency [EPA] National Institutes of Environmental Health Sciences [NIEHS] National Toxicology Program [NTP] U.S. Food and Drug Administration [FDA] Tox21 Assay Overview: Hypoxia-inducible factor-1 (HIF-1) is the major hypoxia-regulated transcription factor that controls cellular responses to low oxygen concentration. HIF-1 is composed of two subunits: hypoxia responsive HIF-1-alpha and constitutively expressed HIF-1-beta, which is also known as aryl hydrocarbon receptor nuclear translocator. During hypoxic conditions, HIF-1-alpha heterodimerizes with HIF-1-beta and translocates into the nucleus where the HIF-1 complex binds to the hypoxia-response element (HRE) and activates expression of target genes such as VEGF (vascular endothelial growth factor). The HIF-1 pathway is essential to normal growth and development, and is involved in the pathophysiology of cancer, inflammation, and ischemia. Using a beta-lactamase reporter-gene under control of the hypoxia response element, a cell-based assay [CellSensor(TM) HRE-bla ME-180 from Life Technologies, Carlsbad, CA] was used to measure hypoxia-induced signaling. Tox21 10K library compounds were measured for their ability to induce the reporter gene activity.
Tox21 Assay Protocol Summary: HRE-bla ME-180 cells were dispensed at 2,000 cells per well in 6 uL of assay medium containing 0.5% dialyzed FBS into black wall/clear-bottom 1536-well plates using a Multidrop Combi (Thermo Scientific, Waltham, MA) dispenser. After the assay plates were incubated at 37C and 5% CO2 for 5 hrs, 23 nL of compounds dissolved in DMSO, positive controls or DMSO only was transferred to each well of the assay plate using a Pintool station (Kalypsys, San Diego, CA). The assay plates were incubated at 37C and 5% CO2 for 17 hrs. One uL of LiveBLAzerTM B/G FRET substrate (CCF4-AM) (Life Technologies) was added to each well using a Flying Reagent Dispenser (Aurora Discovery, San Diego, CA).

Experiment [8] is described as follows: qHTS RealTime-Glo MT Cell Viability Assay in HepG2 cells - 24 hour (AID 1224867; active = well fitted curve in the direction sought with a large enough effect in the repeat runs; an effect the other way counts as inactive or inconclusive; also: nearly all actives have a fitted effect of over 50% in size). To be noted: RealTime-Glo luminescence; at 76.8 µM (top of the series). The procedure, abridged: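 Cell number in HepG2 cultures estimated from NanoLuc luminescence generated by metabolic reduction of a prosubstrate by living cells. The homogeneous, nonlytic format allowed repeated reads at 0, 8, 16, 24, 32 and 40 h of compound exposure.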

A short description of experiment [9]: qHTS assay to identify small molecule antagonists of the estrogen related receptor signaling pathway with the pleiotropic PPARgamma coactivator (PGC) from Tox21 10K library (AID 1224841; call rule not given here; also: actives are mostly falling curves and most rising ones were filed inactive; nearly all actives have a fitted effect of over 50% in size). To be noted: PGC/ERR reporter cell line, ONE-Glo luciferase, 18 h; at 92.4 µM (top of the series).
The nature of experiment [10]: qHTS assay to identify small molecule antagonists of the estrogen related receptor (ERR) signaling pathway from Tox21 library (AID 1224848; active = well fitted curve in the direction sought with a large enough effect in the repeat runs; an effect the other way counts as inactive or inconclusive; also: nearly all actives have a fitted effect of over 50% in size). To be noted: ERR reporter cell line, luciferase antagonist mode, 18 h; at 92.4 µM (top of the series). The gist of the method:
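Tox21 10K compounds in DMSO tested for ERR pathway antagonism in NTP's ERR cell line; 18 h, 37 C exposure; ONE-Glo luminescence.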

Several values for one entry are separate records, joined by “and”; a condition that tells them apart may be missing. Equal entries are not always repeated. The list shows a part of the results, in another mix than the full data. Inconclusive results are not listed. Activity calls are given as the source filed them. Unless noted, calls follow the shape of the full dose curve.
% is scaled to controls: 0 for no effect and ±100 for the full control effect.

Turning to `CN(CCCl)CCCl`, the activation in [1] (at 42.5 µM (top of the series)) was inactive: -8.71%; in experiment [1] (at 92.4 µM (top of the series)) it was inactive: -0.72%. The Potency in experiment [2] is active: 31.8 µM and active: 22 µM. Besides, the activity change, negative = cytotoxicity in experiment [3] was inactive: 9.95%. The activity change, positive = activation is inactive: -30.9% in experiment [4] (at 42.5 µM (top of the series)) and inactive: -78.7% in experiment [4] (at 92.4 µM (top of the series)).

With `CCC(=O)N(c1ccccc1)C1(COC)CCN(CCc2cccs2)CC1`, the activation in experiment [5] is inactive: -14.7%; in [1] (at 92.4 µM (top of the series)), inactive: -0.751%; in [7], inactive: 1.33%. The activity change, negative = cytotoxicity in experiment [6] was inactive: -2.43%; in [3], inactive: -2.97%; in experiment [8], inactive: -8.39%. The Potency entry in [2] is “inactive”. For the same molecule, in [4] (at 92.4 µM (top of the series)), the activity change, positive = activation is inactive: -35.7%.

For the molecule `O=[N+]([O-])C(Cl)(Cl)Cl`, the activity, negative = inhibition in experiment [9] is inactive: -8.56%; in [10], inactive: 14.5%. For the same molecule, the activation is inactive: -0.565% in [5], inactive: 0.77% in experiment [1] (at 92.4 µM (top of the series)) and inactive: 0.64% in [7]. Also, the results for the activity change, negative = cytotoxicity in [6], in experiment [3] and in [8] were inactive: 0.221%, inactive: 2.27% and inactive: 1.36%, respectively. In addition, the Potency result in [2] was “inactive”. Besides, the activity change, positive = activation in experiment [4] (at 92.4 µM (top of the series)) is inactive: 9.5%.

`CCC(=O)N(c1ccccc1)C1(COC)CCN(CCn2nnn(CC)c2=O)CC1`: the activity, negative = inhibition was inactive: 5.1% in [9] and inactive: -1.05% in experiment [10]. The activation is inactive: 1.05% in experiment [5], inactive: 1.66% in [1] (at 92.4 µM (top of the series)) and inactive: 0.608% in [7]. The activity change, negative = cytotoxicity in experiment [6] was inactive: -13.5%; in [3], inactive: -1.18%; in [8] it was inactive: 2.72%. Besides, the Potency result in [2] is “inactive”. The activity change, positive = activation in [4] (at 92.4 µM (top of the series)) was inactive: -1.56%.

(Values after PubChem BioAssay (Tox21).)
